What was measured:
[1] = tested on: unilateral 6-OHDA-lesioned rats; assay: Example 2: stepping test; assay type: in vivo, Sprague-Dawley rats; details: vilazodone 10 mg/kg or escitalopram 12.5 mg/kg + L-DOPA 5 mg/kg; 60 minutes post L-DOPA
DRN 5-HT neurons = assay: Example 3: in vivo single-unit recordings of DRN 5-HT neurons; parameters: species or system rats; details: rat, iv

Compound | forelimb akinesia and L-DOPA prokinetic / therapeutic efficacy (stepping test) [1] | firing of 5-HT cells in AAV-D2Rs injected rats (DRN 5-HT neurons)
Cl.N#Cc1ccc2[nH]cc(CCCCN3CCN(c4ccc5oc(C(N)=O)cc5c4)CC3)c2c1 [Vilazodone, 5-{4-[4-(5-cyano-3-indolyl)-butyl]-1-piperazinyl}-benzofuran-2-carboxamide hydrochloride] | had no effects on forelimb akinesia or L-DOPA-induced prokinetic effects | –
CCCN1CCC[C@@H]2Cc3n[nH]cc3C[C@H]21 [quinpirole] | – | exhibited clear inhibitory effects
